Here are results for 64 compounds from PubChem BioAssay AID540295 (The Scripps Research Institute Molecular Screening Center, 2011).

Chains of the proteins cited; added tags and fusions are not shown.
UniProt P32245, whole entry, looked up: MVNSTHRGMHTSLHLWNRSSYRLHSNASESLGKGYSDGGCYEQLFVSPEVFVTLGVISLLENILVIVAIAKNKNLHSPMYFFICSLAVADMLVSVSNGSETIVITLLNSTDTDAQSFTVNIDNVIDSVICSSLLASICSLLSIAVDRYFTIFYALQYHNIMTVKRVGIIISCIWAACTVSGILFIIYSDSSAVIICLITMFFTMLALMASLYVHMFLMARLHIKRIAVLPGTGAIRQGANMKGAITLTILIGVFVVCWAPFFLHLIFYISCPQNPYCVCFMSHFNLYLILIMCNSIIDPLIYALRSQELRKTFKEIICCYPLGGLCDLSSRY

As usually defined, the inhibition is the drop in the measured response relative to a control, in per cent.

Structures are written as SMILES. Where “and” joins values, the source holds several entries; their conditions need not be identical. Equal entries are not always repeated. Only a part is listed here, and it is no random draw. Calls of active or inactive are those of the source.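 How the source made its calls: active means inhibition above its plate's cutoff, the mean of tested wells on that plate plus 3 SD (cut at about 29% in these data); inactive means the rest.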

The test has as its target Melanocortin receptor 4 (Homo sapiens) (UniProt P32245). Briefly: MC4R antagonists of cAMP signaling, primary screen, cell-based, TR-FRET, antagonist arm of biased-ligand search (AID 540295).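 Further: 0% = Melanotan II alone and 100% = Melanotan II plus saturating MCL0020.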 Particulars: MC4R-expressing cells, MTII-stimulated cAMP, LANCE TR-FRET; at 6.5 µM; hits give high values.
Regarding `CCc1cc(O)c([N+](=O)[O-])c(C)c1[N+](=O)[O-]`, the inhibition was inactive: 3.57%.
Regarding `CC(C)(C)C(=O)NC(Sc1ccccc1)C(Cl)(Cl)Cl` (centres undefined), the inhibition was inactive: 2.95%.
Consider `CCOc1ccc(C2=NCC(CBr)S2)cc1` (centres undefined), for which the inhibition is inactive: 2.38%.
Regarding `O=P1(Nc2nc3ccc(Cl)cc3s2)COc2ccccc2O1` (centres undefined), the inhibition is inactive: -0.05%.
Consider `COc1ccc(C[C@H](C)NC[C@@H](O)c2ccc(O)c(NC=O)c2)cc1`, for which the inhibition is inactive: -3.74%.
As to `c1nnnn1CCn1cnnn1`, the inhibition was inactive: -0.03%.
Take `O=P(Nc1nccs1)(c1ccccc1)c1ccccc1`: the inhibition was inactive: 0.77%.
As for `CC(C)C(=O)NC(Sc1ccccc1)C(Cl)(Cl)Cl` (centres undefined), the inhibition was inactive: 2.64%.
Turning to `C(Cc1nn[nH]n1)Cc1nn[nH]n1`, the inhibition is inactive: 1.25%.
Then `Nc1ccc([As](=O)(O)c2ccc([N+](=O)[O-])cc2)cc1`, with inactive: 15.9%; and `O=C(OC1CN2CCC1CC2)c1cccc(Cl)c1` (centres undefined), with inactive: 8.5%.
Consider `O=[N+]([O-])c1ncn(CCn2cnc([N+](=O)[O-])n2)n1`, for which the inhibition was inactive: 2.94%.
As for `CC(=O)NC(SC(=S)N(C)C)C(Cl)(Cl)Cl` (centres undefined), the inhibition is inactive: 8.67%.
Then `O=[N+]([O-])c1ccc(O)c(/C=N/Nc2ccc([N+](=O)[O-])cc2[N+](=O)[O-])c1`, with inactive: 11.6%; and `O=[As](O)(c1ccccc1)c1ccc(O)cc1`, with inactive: 12.2%; and `C[C@H]1OP(=O)(Oc2ccccc2)[C@H](O)[C@H](O)[C@H]1N=[N+]=[N-]` (some centres undefined), with inactive: 1.53%.
Take `O=P(Nc1nc2ccccc2s1)(c1ccccc1)c1ccccc1`: the inhibition was inactive: 9.91%.
Consider `COc1ccc(N)c([N+](=O)[O-])c1[N+](=O)[O-]`, for which the inhibition was inactive: -0.75%.
Consider `CN(C)C1(CNC(=O)c2ccc(Cl)c(S(N)(=O)=O)c2)CCCCC1`, for which the inhibition is inactive: 0.36%.
Turning to `O=P(Nc1ccccn1)(c1ccc(Br)cc1)c1ccc(Br)cc1`, the inhibition is inactive: 24.3%.
With `O=[As](O)(c1cccs1)c1cccs1`, the inhibition is inactive: 1.61%.
Next, `Cc1ccc(OCC(=O)OC2CN3CCC2CC3)cc1` (centres undefined): inactive: 8.09%.
As for `NS(=O)(=O)c1cccc(NC(=O)COC(=O)C(O)(c2ccccc2)c2ccccc2)c1`, the inhibition is inactive: 6.69%.
Regarding `O=P1(Nc2ccc(Br)cn2)COc2ccccc2OC1`, the inhibition is inactive: 0.14%.
On to `Nc1cccc([As](=O)(O)c2ccccc2)c1`, for which the inhibition is inactive: -0.62%.
Regarding `O=P1(Nc2ncccn2)COc2ccccc2OC1`, the inhibition is inactive: 9.27%.
Next, `CCCC1OP(=O)(Nc2ccccc2)OCC1CC` (centres undefined): inactive: 3.57%; `O=C(/C=C/c1ccccc1)OC1CN2CCC1CC2` (centres undefined): inactive: -2.77%.
On to `CN(C)C1(CNC(=O)c2ccc(S(C)(=O)=O)cc2)CCCCC1`, for which the inhibition was inactive: 11.8%.
With `CC1CCC(C(C)C)C(OP(=O)(Nc2ccccn2)c2ccccc2)C1` (centres undefined), the inhibition is inactive: 3.57%.
With `Cc1nn(-c2ccccc2)c2c1P(=O)(N1CCOCC1)N(C)C(c1ccccc1)=N2` (centres undefined), the inhibition was inactive: 2.69%.
As to `CC1(CBr)Cn2c(nc3ccccc3c2=O)S1` (centres undefined), the inhibition was inactive: 6.79%.
For the compound `CN(C(=O)Cc1ccc(Cl)c(Cl)c1)[C@@H]1CCCC[C@H]1N1CCCC1`, the inhibition is inactive: 12.2%.
On to `CC(C)/C=N\N=C(\N)N[N+](=O)[O-]`, for which the inhibition was inactive: -7.6%.
`COc1ccccc1CNC(=O)COC(=O)C(O)(c1ccccc1)c1ccccc1`: the inhibition is inactive: 7.15%.
`CC(C)(C)C(=O)NC(Sc1ncccn1)C(Cl)(Cl)Cl` (centres undefined): the inhibition was inactive: 11.6%.
Regarding `Clc1n[nH]nc1-c1nn[nH][15n]1`, the inhibition was inactive: 1.83%.
`O=P1(N(CCCl)CCCl)NCCC(C(F)(F)F)O1` (centres undefined): the inhibition is inactive: -0.42%.
For `CCOP(=O)(Nc1ccc(C)cn1)OCC`, the inhibition is inactive: 1.53%.
In the case of `CN(CCCl)Cc1cc(Cl)c(NC2=NCCN2)c(Cl)c1`, the inhibition is inactive: 7.83%.
As for `CCOP(=O)(NC(=NC(C)c1ccccc1)NC(C)c1ccccc1)OCC` (centres undefined), the inhibition was inactive: 2.98%.
Next, `CCC1=CC2Cc3nc4ccc(Cl)cc4c(N)c3C(C1)C2` (centres undefined): inactive: 1.65%; `O=P1(Nc2ccccn2)COc2ccccc2OC1`: inactive: 0.1%.
With `CCOP(=O)(Nc1cccc2ccccc12)OCC`, the inhibition was inactive: 7.41%.
Consider `COc1cc(C2NCCC3(OCCO3)C2(C)C)cc(OC)c1OC` (centres undefined), for which the inhibition was inactive: -4.52%.
Take `CCCOP(=S)(Nc1nc(N)cc(=O)[nH]1)OCCC`: the inhibition was inactive: 1.98%.
Take `Nc1cccc2c([As](=O)(O)O)cccc12`: the inhibition was inactive: 20.7%.
Turning to `Cc1ccc(NCCc2c([N+](=O)[O-])cc([N+](=O)[O-])cc2[N+](=O)[O-])cc1`, the inhibition was inactive: 21.8%.
Then `Cc1cccc(OCC(=O)OC2CN3CCC2CC3)c1` (centres undefined), with inactive: 2.35%.
Then `O=[As](O)(c1cccc(O)c1)c1cccc(O)c1`, with inactive: 3.52%; and `CS(=O)(=O)c1ccc(Cl)c(NC(=O)COC(=O)C(O)(c2ccccc2)c2ccccc2)c1`, with inactive: 7.43%.
Next, `O=[As](O)(O)c1cccnc1`: inactive: 6.54%.
`COc1cc(C(=O)NCC2(N3CCOCC3)CCCCC2)cc(Cl)c1OC(C)C`: the inhibition is inactive: 3.55%.
As to `O=C(OC1CN2CCC1CC2)c1ccc(Cl)cc1` (centres undefined), the inhibition was inactive: 4.53%.
Next, `CN(C(=O)Cc1ccc(Cl)c(Cl)c1)[C@H]1CC[C@@]2(CCCO2)C[C@@H]1N1CCCC1`: inactive: 8.61%; `O=[N+]([O-])c1ccc2c(c1)nnn2O`: inactive: 7.86%; `CN(C)C(=O)c1cc([N+](=O)[O-])cc2c1-c1c(cc([N+](=O)[O-])cc1[N+](=O)[O-])C2=O`: inactive: -23.6%.
Consider `CN(C(=O)Cc1ccccc1)[C@@H]1CC[C@]2(CCCO2)C[C@H]1N1CCCC1`, for which the inhibition is inactive: 15.1%.
Take `CCOP1(=S)c2c(C)nn(CCC#N)c2N=C(c2ccc(F)cc2)N1C` (centres undefined): the inhibition was inactive: -6.12%.
Then `N#CCCN(C(=O)COC(=O)C(O)(c1ccccc1)c1ccccc1)c1ccc(F)cc1`, with inactive: 1.49%.
Next, `COc1ccc(CC(C)NCC(O)c2ccc(O)c(NC=O)c2)cc1` (centres undefined): inactive: -4.02% and inactive: -5.29%.
As to `NC(=O)Nc1ccc([As](=O)(O)O)cc1`, the inhibition was inactive: 1.21%.
Then `O=C(O)COc1ccc([As](=O)(O)O)cc1[N+](=O)[O-]`, with inactive: 1.59%; and `Nc1ccccc1[As](=O)(O)c1ccccc1`, with inactive: 9.97%.
